The values that follow are results of earlier work, collected in US20130165771A1 (priority 2011, published 2013).

The conditions of this series: cited from earlier work.

Turning to “fluorescein isothiocyanate dextran [FITC-Dextran]”, the stability in vivo result is reported as “at least 24 hours”.
